Data taken from patent US10010623B2, “Lysosome-cleavable linker” (UCL Business PLC, priority 2012, dated 2018).

Assay: Disassembly of the thiomaleamic acid linker / release of doxorubicin in acidic pH, LCMS
Type: physicochemical
Details: pH 4.5 (50 mM citric acid, 150 mM NaCl), 37° C., over 72 h
Experimental: The material was incubated for 20 h at 37° C. and complete hydrolysis confirmed by LCMS. The resulting thiomaleamic acid construct was then transferred into a pH 4.0 or pH 5.0 buffer (50 mM citric acid, 150 mM sodium chloride) on PD MiniTrap G-25 desalting columns and the eluate concentrated with ultrafiltration columns (5 kDa MWCO, Sartorius).
The samples were incubated at 37° C. and aliquots withdrawn and analysed by LCMS after 0.5, 2, 5, 24 and 48 h.
The anti-CEA-DOX conjugate was prepared as described and purified on PD MiniTrap G-25 desalting columns. The material was incubated for 20 h at 37° C. and complete hydrolysis to the desired thiomaleamic acid construct confirmed by LCMS (required mass 27,528 Da). The buffer-pH (PBS, pH 7.4) was then changed to pH 4.5 (50 mM citric acid, 150 mM sodium chloride) via PD MiniTrap G-25 desalting columns and the eluate concentrated with ultrafiltration columns (5 kDa MWCO).
The thiomaleamic acid construct was incubated at 37° C. and aliquots analysed after 0.5, 2, 5, 24 and 48 h by LCMS. […] The appearance of free doxorubicin could be monitored in addition to the anti-CEA maleic acid.
Trastuzumab-Fab-DOX conjugate 2 was prepared as described. […] The antibody conjugate was incubated at 37° C. and aliquots were analysed after 2, 6, 24, 48 and 72 h by LCMS.

Substance: Trastuzumab-Fab-DOX conjugate 2
- conversion to Trastuzumab-Fab-maleic anhydride with release of doxorubicin: quantitative conversion
